{
  "source": "ChEMBL document CHEMBL4818991",
  "about": "“Recent Advances in β2-Agonists for Treatment of Chronic Respiratory Diseases and Heart Failure” (J Med Chem, 2020)",
  "species": "Cavia porcellus",
  "test": "Inhibition of acetylcholine-induced bronchoconstriction in guinea pig assessed as duration of action by measuring half life",
  "format": "functional",
  "data": [
    {"molecule": "O=c1ccc2c([C@@H](O)CNCCCCCCOCC(F)(F)c3ccccc3)ccc(O)c2[nH]1", "note": "[ABEDITEROL]", "values": [
      {"measurement": "T1/2", "result": 36, "unit": "h"}
    ]}
  ]
}
